Source: patent US20110160252A1, “PHARMACEUTICAL COMPOSITIONS FOR TREATMENT OR PREVENTION OF HBV INFECTION” (priority 2008, published 2011)

System: HBV (genotype C_AT; wild-type strain)
Test: Serum HBV DNA in chimeric mice having human liver infected with genotype C HBV (Example 2)
Format: in vivo, Hepatitis B virus
Conditions: after 14 days, PEG-IFN 30 μg/kg, compound of formula (III) 10 mg/kg (FIG. 2)
Experimental: The inhibitory activity of the compound represented by formula (III) was assessed using chimeric mice (purchased from PhoenixBio Co., Ltd.) having human liver infected with wild-type HBV strain (genotype C_AT; wild-type strain).
Specifically, the compound represented by formula (III) and/or PEG-IFN (Chugai Pharmaceutical Co.) were administered by intravenous or subcutaneous injection to mice infected with genotype C HBV (C_JPNAT; reference: Sugiyama) according to Table 1. Then, blood was collected from the mice.
In Table 1, circle represents the timing of blood collection; 30 indicates administration of PEG-IFN at 30 μg/kg; 10+30 indicates administration of the compound represented by formula (III) at 10 mg/kg in combination with PEG-IFN at 30
Next, serum HBV was purified by the same method as described in Example 1, and HBV was quantified by measuring HBV-DNA using real-time PCR method. The sequences of primers HBSF2: 5′-CTTCATCCTGCTGCTATGCCT-3′[nt 406-426] […] (SEQ ID NO: 5), and the sequence of TaqMan probe HBSP2 (nt 461-488) (5′-ATGTTGCCCGTTTGTCCTCTAATTCCA-3′ (SEQ ID NO: 6)) were the same as those described in the reference (Abe A, Inoue K, Tanaka T, Kato J, Kajiyama N, Kawaguchi R, Tanaka S, et al. Quantitation of hepatitis B virus genomic DNA by real-time detection PCR. J Clin Microbiol (1999) 37: 2899-2903).

PEG-IFN: PEG-IFN used in Examples 2 to 5 herein refers to Peginterferon α-2a (Pegasys)
decrease of serum level of HBV DNA: about 1.4 Log
